{"source": "patent US20260130896A1", "about": "“COMPOSITIONS AND METHODS FOR DELIVERY OF OPHTHALMOLOGICAL ACTIVES” (ADS Therapeutics LLC, priority 2023, published 2026)", "test": "Solubility of atropine in exemplary formulations", "type": "physicochemical", "data": [{"smiles": "CN1[C@@H]2CC[C@H]1C[C@@H](OC(=O)C(CO)c1ccccc1)C2", "note": "(some centres unmarked) [Atropine, atropine]", "values": [{"measurement": "precipitation at 2-8° C.", "setting": "10% Captex 355/90% F6H8, 2-8° C.", "value": "There was no"}, {"measurement": "precipitation at 2-8° C.", "setting": "100% Captex 300, 2-8° C.", "value": "There was no"}]}]}
